For this assay, the target named is Glutamate receptor ionotropic, NMDA 2A (Homo sapiens, UniProt Q05586+Q12879). Description: Antagonistic activity against NR1A/2A receptors in frog oocytes. It is filed as functional, cell-based, Oocyte.

Sequences of proteins named here, by UniProt entry; tags and fusion partners are left off.
UniProt Q12879, whole entry: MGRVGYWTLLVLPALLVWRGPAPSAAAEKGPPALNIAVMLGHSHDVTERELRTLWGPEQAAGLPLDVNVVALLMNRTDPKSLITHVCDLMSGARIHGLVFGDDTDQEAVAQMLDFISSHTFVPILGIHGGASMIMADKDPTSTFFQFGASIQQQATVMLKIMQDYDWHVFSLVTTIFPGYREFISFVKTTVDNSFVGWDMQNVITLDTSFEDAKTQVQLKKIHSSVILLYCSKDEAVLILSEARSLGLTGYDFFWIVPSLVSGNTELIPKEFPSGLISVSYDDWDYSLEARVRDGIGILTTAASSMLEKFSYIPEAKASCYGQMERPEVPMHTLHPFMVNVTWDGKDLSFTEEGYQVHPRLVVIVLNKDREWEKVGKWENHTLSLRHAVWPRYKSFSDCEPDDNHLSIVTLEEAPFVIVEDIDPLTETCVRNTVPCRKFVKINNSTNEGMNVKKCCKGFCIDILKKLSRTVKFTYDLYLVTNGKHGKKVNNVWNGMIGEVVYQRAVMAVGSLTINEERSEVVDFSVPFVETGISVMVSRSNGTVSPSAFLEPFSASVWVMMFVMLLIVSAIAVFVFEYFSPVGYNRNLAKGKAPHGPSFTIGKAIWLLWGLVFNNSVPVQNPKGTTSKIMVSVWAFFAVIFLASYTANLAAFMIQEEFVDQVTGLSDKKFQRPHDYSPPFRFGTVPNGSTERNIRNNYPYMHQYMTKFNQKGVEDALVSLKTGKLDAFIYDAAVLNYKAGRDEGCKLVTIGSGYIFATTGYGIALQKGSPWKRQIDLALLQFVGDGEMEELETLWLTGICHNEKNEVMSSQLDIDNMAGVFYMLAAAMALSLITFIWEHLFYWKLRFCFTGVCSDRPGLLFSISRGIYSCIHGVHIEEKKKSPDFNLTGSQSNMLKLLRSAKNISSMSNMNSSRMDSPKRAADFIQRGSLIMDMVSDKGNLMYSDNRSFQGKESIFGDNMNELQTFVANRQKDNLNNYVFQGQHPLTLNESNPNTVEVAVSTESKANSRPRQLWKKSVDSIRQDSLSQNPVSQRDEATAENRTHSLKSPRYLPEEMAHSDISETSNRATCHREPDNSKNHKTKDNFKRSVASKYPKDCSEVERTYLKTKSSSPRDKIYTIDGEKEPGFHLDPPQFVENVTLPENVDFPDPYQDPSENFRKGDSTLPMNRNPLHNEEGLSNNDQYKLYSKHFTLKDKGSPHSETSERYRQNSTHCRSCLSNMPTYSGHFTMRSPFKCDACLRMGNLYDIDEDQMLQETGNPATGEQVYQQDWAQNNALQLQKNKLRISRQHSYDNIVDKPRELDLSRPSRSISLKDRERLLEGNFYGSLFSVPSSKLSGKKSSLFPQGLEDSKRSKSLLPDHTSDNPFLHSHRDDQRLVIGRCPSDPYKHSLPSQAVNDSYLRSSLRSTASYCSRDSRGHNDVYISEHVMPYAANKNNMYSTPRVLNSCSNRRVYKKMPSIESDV

The structures appear in SMILES notation.

For orientation: IC50 means the point on the concentration scale where inhibition reaches its midpoint. A higher IC50 goes with lower potency.

The molecule `c1ccc(CC2CCN(CCSc3nc4ccccc4[nH]3)CC2)cc1` yielded a half-inhibitory concentration (IC50) of 75 µM.

The values above are taken from ChEMBL document CHEMBL1133420, “Parallel synthesis of a series of subtype-selective NMDA receptor antagonists” (Bioorg Med Chem Lett, 2000).
